Literature values in publication PMC8401933 (Molecules, 2021).

Test system: CK2 holoenzyme
Settings: quantity not named; cited from earlier work

O=C1c2ccc(O)c(O)c2C(=O)c2c(O)ccc(O)c21 [quinalizarin, 1,2,5,8-tetrahydroxyanthraquinone]
inhibitor potency for CK2 holoenzyme: 58 nM
